Literature values in US20090169478A1, “In Vivo Imaging and Therapy with Magnetic Nanoparticle Conjugates” (priority 2005, published 2009).

Tested on: mice
Settings: mouse, in vivo, 350 mg/kg; cited from earlier work

In the case of iron oxide nanoparticles, the tolerance is given as “well tolerated”.
